The structures appear in SMILES notation.

Chains of the proteins cited; added tags and fusions are not shown. Residues count along the entry.
UniProt O14965, 123-403 limits assumed: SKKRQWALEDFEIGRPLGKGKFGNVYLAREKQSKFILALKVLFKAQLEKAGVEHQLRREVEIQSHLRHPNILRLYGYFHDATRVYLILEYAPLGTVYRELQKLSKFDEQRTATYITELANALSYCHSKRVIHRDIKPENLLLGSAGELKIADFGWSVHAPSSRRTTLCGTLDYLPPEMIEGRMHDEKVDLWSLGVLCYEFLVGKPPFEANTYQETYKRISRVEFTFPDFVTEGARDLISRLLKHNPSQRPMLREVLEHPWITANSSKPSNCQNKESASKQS

This is an account of results in publication PMC4919790, “Allosteric modulation of AURKA kinase activity by a small-molecule inhibitor of its protein-protein interaction with TPX2” (Scientific Reports, 2016).

The target of this assay is AURKA-TPX2 interaction (His-tagged AURKA123–403 / TAMRA-labelled TPX2 1–43) (Homo sapiens, UniProt O14965). Nature of the assay: Fluorescence anisotropy (FA) competition assay: displacement of TAMRA-TPX2 1-43 from AURKA123-403. As to conditions: for IC50: read-out: Average IC50, Supplementary Table 1, FA assay; for Ki: read-out: Calculated Ki, Supplementary Table 1, free-concentration corrected Cheng-Prusov.

For `O=C(O)c1cc(-c2cc(F)cc(F)c2)nc2ccccc12`, the IC50 turned out to be 36 µM and the Ki was 7.8 µM.

Turning to `O=C(O)c1cc(-c2cccnc2)nc2ccc(Cl)cc12`, the IC50 came to 163 µM and the Ki was 35.5 µM.

With `O=C(O)c1cc(-c2cccc(F)c2)nc2ccc(Br)cc12`, the IC50 was > 500 µM and the Ki is > 100 µM.
